Reference: patent US7132554B2, “Therapeutic synergy of anti-cancer compounds” (Bristol-Myers Squibb Company, priority 2004, dated 2006)

Key:
[1] = system: Human L2987 lung carcinoma xenografts; experiment: Antitumor testing versus s.c. L2987 lung carcinoma xenografts in nude mice; assay type: in vivo; conditions: pilot study, q3dx4 from Day 22, cetuximab 1 mg/mouse i.p.
Procedure: (§1) Compounds. The oral taxane (Ia) was synthesized by Bristol-Myers Squibb (BMS) chemists. The compound was dissolved initially in equal portions of Cremophor EL and ethanol, followed by aqueous dilution to yield final ethanol and Cremophor EL concentrations of 10%.
(§2) Animals. Athymic (“nude”) mice, 5–6 weeks of age, purchased from Harlan Sprague Dawley (Indianapolis, Ind.), were quarantined for ˜2 weeks before their use for tumor propagation and drug efficacy testing. They were fed food and water ad libitum. All studies involving these animals were conducted in accordance with NIH (Bethesda, Md.) and Bristol Myers-Squibb animal care and use guidelines.
Tumors. Human L2987 lung and GEO colon carcinomas were maintained in nude mice by serial s.c. passage. All efficacy testing involved tumors implanted s.c. in nude mice.
Antitumor Testing. A detailed description of the methods used to assess antitumor effects has been provided previously in Rose, W. C., Fairchild, C., and Lee, F. Y. F. Preclinical antitumor activity of two novel taxanes. Cancer Chemother. Pharmacol. 47: 97–105, 2001. […]
(§3) Definitions of MTD and OD have been published previously in the above-noted article. […] Cured mice are defined as those whose tumors are ≦35 mg when assessed 10 tumor volume doubling times (based on control tumor growth between 500 mg and 1 g) post-termination of treatment. […]

[2] = system: Human GEO colon carcinoma xenografts; experiment: Antitumor testing versus s.c. GEO colon carcinoma xenografts in nude mice; assay type: in vivo; conditions: q3dx6 from Day 11, cetuximab 1 mg/mouse i.p.
Procedure: as §1, §2
Tumors. Human L2987 lung and GEO colon carcinomas were maintained in nude mice by serial s.c. passage. All efficacy testing involved tumors implanted s.c. in nude mice. […]
Antitumor Testing. […] Briefly, therapeutic results are presented in terms of either cures and/or primary tumor growth inhibition determined by calculating the relative median times for drug-treated (T) and control (C) groups of mice to grow tumors of 1 g target size, and expressed as T-C values (in days). […]
as §3

[3] = Tolerability (body weight change, deaths, MTD) in nude mice bearing GEO tumors; assay type: in vivo; conditions: q3dx6 from Day 11; cetuximab 1 mg/mouse i.p.
Procedure: as §1, §2
Definitions of MTD and OD have been published previously in the above-noted article. Therapeutic results were reported at the OD, i.e., that yielding the best effect without exceeding the MTD. Therapeutic synergy represents a therapeutic effect achieved with a tolerated regimen of a combination treatment that exceeds the optimal effect achieved at any tolerated dose of monotherapy associated with the same drugs used in the combination. Cured mice are defined as those whose tumors are ≦35 mg when assessed 10 tumor volume doubling times (based on control tumor growth between 500 mg and 1 g) post-termination of treatment. […]

[4] = system: Human L2987 lung carcinoma xenografts; conditions: previously described; cited from earlier work
[5] = system: Human GEO colon carcinoma xenografts; conditions: known from earlier work; cited from earlier work

## cetuximab [reference compound]
[1]
  LCK (log cell kill): 0.6
[1]; tumor target 1.0 g
  T-C: 14.3 days
[2]
  LCK (log cell kill): 0.7
[2]; tumor target 1.0 g
  T-C: 10.0 days
[3]
  Average body weight change: no body weight loss
[4]
  Antitumor activity described for L2987: borderline levels of antitumor activity
[5]
  Responsiveness of the GEO tumor model: responsive
